Results taken from patent publication US20220315534A1, “BETA ADRENERGIC AGONIST AND METHODS OF USING THE SAME” (Curasen Therapeutics, Inc., priority 2019, published 2022).

The chains behind the UniProt entries cited, without tags or fusion partners.
UniProt P07550, whole entry: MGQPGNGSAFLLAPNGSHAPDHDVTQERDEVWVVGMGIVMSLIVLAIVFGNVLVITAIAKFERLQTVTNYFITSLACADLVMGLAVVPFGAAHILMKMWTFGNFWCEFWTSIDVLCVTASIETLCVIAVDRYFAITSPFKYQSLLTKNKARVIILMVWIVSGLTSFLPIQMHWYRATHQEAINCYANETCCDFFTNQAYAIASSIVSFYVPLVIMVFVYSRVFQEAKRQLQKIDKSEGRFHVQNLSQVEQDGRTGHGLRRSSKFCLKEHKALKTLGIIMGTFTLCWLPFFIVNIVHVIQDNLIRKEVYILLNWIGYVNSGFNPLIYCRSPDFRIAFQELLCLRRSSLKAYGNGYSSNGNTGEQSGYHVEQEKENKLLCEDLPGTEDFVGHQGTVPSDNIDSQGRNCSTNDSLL
UniProt P08588, whole entry: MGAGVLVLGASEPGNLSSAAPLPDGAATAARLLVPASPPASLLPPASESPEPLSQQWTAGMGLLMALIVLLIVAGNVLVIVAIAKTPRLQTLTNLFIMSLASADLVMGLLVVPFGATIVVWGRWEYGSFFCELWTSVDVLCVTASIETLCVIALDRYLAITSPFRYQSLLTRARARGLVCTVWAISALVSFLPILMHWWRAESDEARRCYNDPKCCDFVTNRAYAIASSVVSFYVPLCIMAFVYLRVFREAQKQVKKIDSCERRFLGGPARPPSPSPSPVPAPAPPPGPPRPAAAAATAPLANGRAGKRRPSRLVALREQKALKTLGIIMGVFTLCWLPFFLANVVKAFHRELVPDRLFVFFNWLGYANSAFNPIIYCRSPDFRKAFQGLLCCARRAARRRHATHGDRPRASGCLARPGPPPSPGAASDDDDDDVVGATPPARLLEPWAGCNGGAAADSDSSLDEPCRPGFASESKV

Legend:
[1] = molecular target: T1, β2-adrenergic receptor (B2-AR) (Homo sapiens, UniProt P07550); experiment: cAMP Gs dynamic HTRF assay, cells expressing β2-adrenergic receptor; type: cell-based; settings: CHO-K1 (HitHunter) cells; read-out: Average pEC50 [Receptor subtype: B2-AR; Cell type: CHO-K1 (HitHunter)] (converted)
T1 construct: expressed in transfected cells
Experimental: (§1) cAMP homogeneous time-resolved fluorescence (HTRF): experimental methods. Compound efficacy is determined using the cAMP Gs dynamic HTRF assay (Cisbio, catalog #62AM4PEC) largely following the manufacturer's instructions, also detailed below.
(§2) Standard serial dilution curves are 10-point, 5-fold dilutions starting from a highest concentration of 10 μM. […] Assay plates are centrifuged at 500×g for 10 seconds. Compounds and IBMX are prepared at 2× final dose to compensate for addition of cells.
(§3) Cell preparation: 1× stimulation buffer, washing PBS (Dulbecco's phosphate-buffered saline, —Mg —Ca; Caisson Labs, catalog #PBL01), assay PBS (Dulbecco's phosphate-buffered saline, +Mg, +Ca; Caisson Labs, catalog #PBL02) and Versene (0.02% EDTA disodium salt solution in PBS without calcium or magnesium; Caisson Labs, catalog #EDL01) are pre-warmed to 37° C. […] Cells are harvested using assay PBS, counted manually by hemocytometer or by an automated cell counter, pelleted by centrifugation (200×g, 5 minutes) and resuspended in 37° C. […]
(§4) HTRF reagent addition, reading and data analysis: After 30 minutes of cell stimulation with test compound, the assay plates are centrifuged at 500×g for 10 seconds, and incubation was stopped with the addition of 5 μL cAMP-D2 acceptor, diluted 1:21 in detection and lysis buffer 2 (Cisbio 62CL2FDF) was added to all cells. […]

[2] = molecular target: T2, β1-adrenergic receptor (B1-AR) (Homo sapiens, UniProt P08588); experiment: cAMP Gs dynamic HTRF assay, cells expressing β1-adrenergic receptor; type: cell-based; settings: CHO-K1 (HitHunter) cells; read-out: Average pEC50 [Receptor subtype: B1-AR; Cell type: CHO-K1 (HitHunter)] (converted)
T2 construct: expressed in transfected cells
Experimental: as §1, §2, §3, §4

Row | SMILES | EC50 [1] | EC50 [2]
1 | COc1ccc(C[C@@H](C)NC[C@H](O)c2ccc3c(n2)OCCO3)cc1 [Compound 04-6] | < 10 nM | 10 to 100 nM
2 | COc1ccc(C[C@@H](C)NC[C@H](O)c2ccc3c(n2)CCC3)cc1 [Compound 04-8] | < 10 nM | 10 to 100 nM
